Data as given in publication PMC5068912 (Psychopharmacology, 2016).
Like-named read-outs stand apart in the source and are kept apart here.

Legend:
C57BL/6 wild-type mice [1] = conditions: mouse, in vivo
[2] = compared to previously published compounds; ref Dietis et al. 2009; Healy et al. 2013 (comparators); cited from earlier work
[3] = pH 7.4
C57BL/6 wild-type mice [4] = conditions: mouse, in vivo, ip
C57BL/6 wild-type mice [5] = conditions: mouse, in vivo, ip; remark: listed apart in the source

In the case of “Dmt-c(SEtS)[DCys-Aic-DPen]-Ser(β-glucose)-NH2 [VRP26]”, the “withdrawal signs precipitated by naltrexone” value (C57BL/6 wild-type mice [1]) is given as “no differences in the number of withdrawal signs”, the “bioavailability after peripheral administration” value [2] is given as “significantly better bioavailability after peripheral administration” and the “drug delivered from osmotic pump, of expected drug concentration” value [3] is given as over 95%. For the same substance, the “stability in osmotic pump” value [3] was “stable under these conditions”, the “locomotor activity, effect of dose” value (C57BL/6 wild-type mice [4]) was “dose-dependent increases in locomotor activity on both day 1 and day 5” and the locomotor activity (C57BL/6 wild-type mice [4]; 10 mg/kg) was “increased locomotor activity (p < 0.05) on day 5 only”. For the same substance, the locomotor activity (C57BL/6 wild-type mice [4]; 32 mg/kg) was “increased locomotor activity on day 1 only” and the “CPP, time spent on drug-paired side” value (C57BL/6 wild-type mice [5]) was “slightly increased time spent on the VRP26-paired side of the apparatus”.
